# Earlier results as cited in PubChem BioAssay AID493017 (Abbott Labs, 2011).
# Some of the results follow. The source made the active and inactive calls. The rule behind the calls is not given here.
# Key:
# Test in all cases: PubChem AID 493017
# MMP1 = details: WOMBAT literature affinities, multiple human targets; MMP-1; gene MMP1; NCBI gene 4312
# DHFR = details: WOMBAT literature affinities, multiple human targets, DHFR, gene DHFR, NCBI gene 1719
# CNR1 = details: WOMBAT literature affinities, multiple human targets; binding affinity Ki; CB1; gene CNR1; NCBI gene 1268
# PTGS2 = details: WOMBAT literature affinities, multiple human targets; COX-2; gene PTGS2; NCBI gene 5743
# PDGFRA = details: WOMBAT literature affinities, multiple human targets; PDGFR; gene PDGFRA; NCBI gene 5156
# KCNJ5 = details: WOMBAT literature affinities, multiple human targets; K(+) channel; gene KCNJ5; NCBI gene 3762
# SIGMAR1 = details: WOMBAT literature affinities, multiple human targets; sigma; gene SIGMAR1; NCBI gene 10280
# MMP13 = details: WOMBAT literature affinities, multiple human targets; MMP-13; gene MMP13; NCBI gene 4322
# GABRA1 = details: WOMBAT literature affinities, multiple human targets; GABA-A; gene GABRA1; NCBI gene 2554
# HTR1A = details: WOMBAT literature affinities, multiple human targets; binding affinity Ki; 5-HT1A; gene HTR1A; NCBI gene 3350
# EGFR = details: WOMBAT literature affinities, multiple human targets; EGFR; gene EGFR; NCBI gene 1956
# FNTA = details: WOMBAT literature affinities, multiple human targets; FTase; gene FNTA; NCBI gene 2339
# GRM2 = details: WOMBAT literature affinities, multiple human targets; mGluR2; gene GRM2; NCBI gene 2912
# F2 = details: WOMBAT literature affinities, multiple human targets; binding affinity Ki; thrombin; gene F2; NCBI gene 2147
# HRH3 = details: WOMBAT literature affinities, multiple human targets; binding affinity Ki; H3; gene HRH3; NCBI gene 11255
# F10 = details: WOMBAT literature affinities, multiple human targets; binding affinity Ki; fXa; gene F10; NCBI gene 2159
compound,measurement,setting,value
COc1ccc(S(=O)(=O)N2CCCS(=O)(=O)C(C)(C)C2C(=O)NO)cc1 (configuration not stated),IC50,MMP1,1.9 nM
CC1(C)N=C(N)N=C(N)N1c1cc(Cl)ccc1Cl,IC50,DHFR,372 µM
COc1cccc(Cc2cnc(N)nc2N)c1,outcome,DHFR,active
same,Ki,DHFR; binding affinity Ki,300 nM
Cc1c(C(=O)c2ccccc2F)c2ccccc2n1C(C)CN1CCOCC1 (configuration not stated),Ki,CNR1,0.891 µM
COC1=C(c2ccc(S(C)(=O)=O)cc2)C(C)(C)OC1=O,IC50,PTGS2,33 µM
CC1(C)N=C(N)N=C(N)N1c1cccc(OCC(=O)N2CCOCC2)c1,IC50,DHFR,14.1 µM
COc1ccc2c(c1)ncn2-c1ccccc1,IC50,PDGFRA,430 nM
O=c1[nH]c2cc(C(F)(F)F)ccc2n1-c1cc(C(F)(F)F)ccc1O,IC50,KCNJ5,6.31 µM
CC1(C)N=C(N)N=C(N)N1c1cccc(OCC(=O)Nc2ccccc2)c1,IC50,DHFR,0.141 µM
COc1ccc(-c2ccccc2-c2ccc(S(C)(=O)=O)cc2)cc1Cl,IC50,PTGS2,10 µM
CCCC(N)Cc1ccc(OC)c(OCCc2ccccc2)c1 (configuration not stated),IC50,SIGMAR1,330 nM
CCCOC1CCC(CS)(C(=O)NC(Cc2ccccc2)C(=O)NC)CC1 (configuration not stated),IC50,MMP1,6030 nM
CC1(C)OC(=O)C(OC2CC2)=C1c1ccc(S(C)(=O)=O)cc1,IC50,PTGS2,5.2 µM
CC1(C)N=C(N)N=C(N)N1c1ccc(C(=O)Nc2ccc(S(=O)(=O)F)cc2)cc1,IC50,DHFR,20.9 µM
CC1(C)N=C(N)N=C(N)N1c1ccc(-c2ccccc2)cc1,IC50,DHFR,20 µM
O=S(=O)(c1ccc(Oc2ccccc2)cc1)C1CCCC(S)C1 (configuration not stated),IC50,MMP13,1 nM
Cc1ccccc1N1C(N)=NC(N)=NC1(C)C,IC50,DHFR,100 µM
CC1(C)N=C(N)N=C(N)N1c1cccc(CCCCc2ccccc2)c1,IC50,DHFR,0.00447 µM
CC1(C)SCCCN(S(=O)(=O)c2ccc(Br)cc2)C1C(=O)NO (configuration not stated),IC50,MMP1,0.7 nM
CS(=O)(=O)c1ccc(-c2cc(C(F)(F)F)cnc2OCC2(O)CCCC2)cc1,IC50,PTGS2,1.4 µM
CC1(C)OC(=O)C(Oc2ccccc2)=C1c1ccc(S(C)(=O)=O)cc1,IC50,PTGS2,0.02 µM
CCOC(=O)c1cc2c(cn1)C(=O)c1ccccc1-2,IC50,GABRA1,25.7 µM
CC(C)OC1=C(c2ccc(S(C)(=O)=O)cc2)C(C)(C)OC1=O,IC50,PTGS2,0.3 µM
Cn1c(Cl)c(Cl)c(-c2ccc(F)cc2)c1-c1ccc(S(C)(=O)=O)cc1,IC50,PTGS2,25.1 µM
CCc1nccc2c1[nH]c1ccccc12,IC50,GABRA1,251 µM
O=C1CC(=C(c2ccccc2)c2ccccc2)C(=O)N1CCCCN1CCN(c2ccccc2)CC1,Ki,HTR1A,125 nM
CC1(C)N=C(N)N=C(N)N1c1cccc(C(=O)Nc2ccc(S(=O)(=O)F)cc2)c1,IC50,DHFR,1.1 µM
Clc1cccc(Nc2ncnc3ccccc23)c1,IC50,EGFR,23 nM
Cn1ccc(-c2ccc(F)cc2)c1-c1ccc(S(C)(=O)=O)cc1,IC50,PTGS2,20 µM
CC1(C)OC(=O)C(Nc2ccccc2)=C1c1ccc(S(C)(=O)=O)cc1,IC50,PTGS2,0.5 µM
CS(=O)(=O)c1ccc(C2=C(c3ccc(F)cc3)C(=O)OC2)cc1,IC50,PTGS2,0.6 µM
Cn1c2ccccc2c2c1cnc1c3ccccc3n(C)c12,IC50,GABRA1,1.95 µM
CSCCC(NC(=O)C1CCC2CCCC(NC(=O)C(CS)NC(=O)OCC3c4ccccc4-c4ccccc43)C(=O)N21)C(=O)O (configuration not stated),IC50,FNTA,7 µM
NC(C(=O)O)C1C(C(=O)O)C1c1ccccc1 (configuration not stated),IC50,GRM2,9.9 µM
COc1ccc(S(=O)(=O)N2CCCCC2C(=O)NO)cc1 (configuration not stated),IC50,MMP1,23 nM
COc1ccc2ccc(S(=O)(=O)N(C)C3CCN(Cc4cccc(C(=N)N)c4)C3=O)cc2c1 (configuration not stated),Ki,F2,1050 nM
CCCCCC=CCC=CCC=CCC=CCCCC(N)=O,Ki,CNR1,9.6 µM
CCCN(CCC)CCc1ccc(OC)c(OCCc2ccccc2)c1,IC50,SIGMAR1,1.3 nM
O=S(=O)(Cc1ccccc1)NCCc1cnc[nH]1,Ki,HRH3,1860 nM
Nc1cc2ccnc(N)c2cc1CN1CCC(NS(=O)(=O)c2cc3ncccc3s2)C1=O (configuration not stated),Ki,F10,6 µM
COc1cc(O)c2c(=O)c(-c3cccc(Cl)c3)cn(CCc3ccccc3)c2c1,IC50,EGFR,4000 nM
